Reference: publication PMC7450492 (Molecular cancer therapeutics, 2020)

Test system: phosphorylation of Syk at 348 site and Y525/526 site
Experiment: phosphorylation of Syk
Format: cell-based

Which “phosphorylation of Syk at 348 site and Y525/526 site” value does the source give for `Cc1nn(-c2ccnc(Nc3ccc(-c4csc5c(=O)cc(N6CCOCC6)oc45)cc3)n2)cc1CN1CCC1` [SRX3207] here?
The value was “potently blocks”.
